Assay results taken from US12668573B2, “Linker, antibody-drug conjugate including same and use thereof” (Zhejiang Yangshengtang Institute of Natural Medication Co., …, priority 2018, dated 2026).

Columns and labels:
[1] = HER2^+ breast cancer after Herceptin resistance; cited from earlier work
MCF-7 = assay: In vitro cytotoxicity test (CellTiter Glo, 96 h); type: cell-based; conditions: MCF-7, HER2-weakly positive breast cancer; ADC DAR about 4
Description: (§1) The positive control drugs were anti-HER2 humanized monoclonal antibody mil40 (MAB) (purchased from Zhejiang Hisun Pharmaceutical Co., Ltd.), and cytotoxin MMAE (purchased from Concortis Biosystems). The selected cell lines included antigen HER2-positive breast cancer cell lines BT-474 and HCC1954, antigen HER2-positive ovarian cancer cell line SK-OV-3, antigen HER2-positive gastric cancer cell line NCI-N87, and antigen HER2-weakly positive breast cancer cell line MCF-7, and antigen HER2-negative breast cancer cell line MDA-MB-468 (purchased from ATCC).
(§2) a) Vial was gently shaken in a 37° C. water bath to be thawed; b) after all the contents had been thawed, the vial was taken out from the water bath, and disinfected by immersion in or spraying with 70% ethanol; c) the contents of the vial was transferred into a centrifuge tube containing 9 mL of complete medium (DMEM medium was used for cell lines BT-474 and MCF-7; RPMI1640 medium was used for cell lines NCI-N87, HCC1954 and MDA-MB-468; and Mccoy's 5A medium was used for cell line SK-OV-3; the media described below were the same as here), and centrifuged at about 200 xg for 5 minutes; d) the cell pellet was re-suspended in a medium and distributed into a 75 cm^2 culture flask; e) the resulting culture was incubated in a 37° C., 5% CO2 incubator.
(§3) a) The cells were passaged three times a week at a ratio of 1:4 in a medium containing 10% FBS (heat inactivated) and 1% penicillin/streptomycin solution; b) for the passaged cells, the adherent cells were firstly washed with 0.05% trypsin/EDTA solution (3 mL), then trypsin/EDTA (3 mL) was added and vortexed to coat the cells evenly. The resulting culture was incubated at 37° C. until the cells were detached (observed with microscope to verify that the cells were detached). An equal volume of cell culture medium was added to inactivate trypsin, the detached cells were collected, and centrifuged at 200×g for 5 minutes and then re-suspended in fresh culture medium. […]
(§4) a) The cells were collected and counted to determine the number of cells; b) 36 μL of the cell suspension with an adjusted density was added to the designated 384-well cell culture plate; and the final cell density was about 1,000 cells/well; c) the plate was covered with a lid, and placed in an incubator to perform incubation at 37° C., 5% CO2 and 0.1% O2 for 96 hours.
(§5) a) After 96 hours, the plate was taken from the incubator and equilibrated at room temperature for 10 minutes; b) CellTiter Glo reagent was incubated at 37° C. before the experiment; c) 40 μL of CellTiter-Glo reagent was added to each well to be tested (the ratio of CellTiter-Glo reagent to medium was 1:1); d) the plate was then placed at room temperature for 30 minutes, and then reading was carried out on an EnSpire reader for cell counting.
(§6) Remaining activity was calculated using the following formula: Remaining activity (%)=100%×(S−M)/(V−M) • S: Readout of test sample • V: Readout of vehicle sample • M: Readout of well with compounds treatment • Xlfit (v5.3.1.3), equation 201 was used to fit curve, and calculate IC50 value. […]

HCC1954 = assay: In vitro cytotoxicity test (CellTiter Glo, 96 h); type: cell-based; conditions: HCC1954, HER2-positive breast cancer; ADC DAR about 4
Description: as §1, §2, §3, §4, §5, §6

NCI-N87 = assay: In vitro cytotoxicity test (CellTiter Glo, 96 h); type: cell-based; conditions: NCI-N87, HER2-positive gastric cancer; ADC DAR about 4
Description: as §1, §2, §3, §4, §5, §6

SK-OV-3 = assay: In vitro cytotoxicity test (CellTiter Glo, 96 h); type: cell-based; conditions: Sk-OV-3, HER2-positive ovarian cancer; ADC DAR about 4
Description: as §1, §2, §3, §4, §5, §6

MDA-MB-468 = assay: In vitro cytotoxicity test (CellTiter Glo, 96 h); type: cell-based; conditions: MDA-MB-468, HER2-negative breast cancer; ADC DAR about 4
Description: as §1, §2, §3, §4, §5, §6

BT-474 = assay: In vitro cytotoxicity test (CellTiter Glo, 96 h); type: cell-based, human; conditions: BT-474, HER2-positive breast cancer; ADC DAR about 4

Kadcyla: ADC drug composed of monoclonal antibody Herceptin and cytotoxin DM1
prolongation of overall survival (OS) in comparison with standard therapy of capecitabine/lapatinib [1]: ~6 months

MAB: anti-HER2 humanized monoclonal antibody mil40, a biosimilar of Herceptin, purchased from Zhejiang Hisun
IC50 (MCF-7): > 3440 nM | IC50 (HCC1954): 0.274 nM | IC50 (NCI-N87): 0.36 nM | IC50 (SK-OV-3): 2760 nM | IC50 (MDA-MB-468): 553 nM | IC50 (BT-474): 1.54 nM
